Earlier results, collected in US20040142910A1, “Sulfonated styrene copolymers for medical uses” (Aegis Biosciences LLC, priority 2002, published 2004).

Conditions: in vivo; cited from earlier work

Cn1c(=O)c2[nH]cnc2n(C)c1=O [theophylline]
toxic levels (blood): approximately 20 µg/ml
